# How the values were obtained:
# [1] = system: human diffuse large B-cell lymphoma cells (WSU-DLCL2 cell); assay: Pharmacodynamic experiment in combination with other drugs, WSU-DLCL2 transplanted tumor model in mice; assay type: in vivo, mice (CB17/SCID); details: 125 mg/kg, intragastrically, twice a day for 21 days
# Description: (§1) The effect of the inventive compounds on tumor growth was discussed.
# (§2) A certain amount of compound was weighted and dissolved in 0.1% Tween under vortex and ultrasound, and 0.5% carboxymethyl cellulose sodium (CMC-NA) solution was added to form a uniform solution.
# (§3) Under sterile conditions, diffuse large B-cell lymphoma cells (WSU-DLCL2 cell) in logarithmic growth stage were digested and mixed with Matrigel and transplanted subcutaneously on the right back of mice (CB17/SCID) with severe combined immunodeficiency disease. Each mouse was inoculated with 1*10^7 cells with a volume of 100 μL. After inoculation, the mice were randomly divided into 10 groups according to the tumor size balance evenly for in vivo pharmacodynamic experiments, with 6 mice in each group. The positive control group was given EPZ-6438 and GSK126, and the negative control group was given the same amount of menstruum.
# [2] = system: human diffuse large cell lymphoma B lymphocytes (Pfeiffer cell); assay: Pharmacodynamic experiment, Pfeiffer transplanted tumor model in mice; assay type: in vivo, mice (beige SCID); details: Mus musculus, po, 504 h, intragastrically, once a day for 21 days, read-out: inhibited tumor growth
# Description: as §1, §2
# The human diffuse large cell lymphoma B lymphocytes (Pfeiffer cell) were ordered from Cobioer, Nanjing, and were cultured with RPMI1640 (Kangning, 35417005), 20% fetal calf serum (Ausbina, 0986180) and 1% penicillin/streptomycin double-antibody (Kangning, 30002297).
# as §3, with “conditions, human” for “conditions,”, “large cell” for “large B-cell”, “lymphoma B lymphocytes (Pfeiffer” for “lymphoma cells (WSU-DLCL2”, “mice (beige SCID)” for “mice (CB17/SCID)”, “into 12” for “into 10”
# [3] = system: human diffuse large B-cell lymphoma cells (WSU-DLCL2 cell); assay: Pharmacodynamic experiment, WSU-DLCL2 transplanted tumor model in mice; assay type: in vivo, mice (CB17/SCID); details: Mus musculus, WSUDLCL2, po, 504 h; 150 mg/kg, intragastrically, twice a day for 21 days; read-out: inhibited tumor growth
# Description: The effect of the inventive compounds on tumor growth was discussed. A certain amount of compound was weighted and dissolved in 0.1% Tween under vortex and ultrasound, and 0.5% carboxymethyl cellulose sodium (CMC-NA) solution was added to form a uniform solution. […] Each mouse was inoculated with 1*10^7 cells with a volume of 100 μL. […] [table]
smiles,measurement,setting,value
"CCN(c1cc(-c2ccc(CN3CCOCC3)cc2)cc(C(=O)NCc2c(C)cc(C)[nH]c2=O)c1C)C1CCOCC1 [EPZ-6438, reference compound]",inhibited tumor growth,[1],65%
same,inhibition in vivo at 100 mg/kg,[2],77%
same,inhibition in vivo at 150 mg/kg,[3],59%
